# Source: PubChem BioAssay AID869 (SRMLSC, 2007)
# The entries are a selection whose mix differs from that of the whole data set. Calls of active or inactive are those of the source.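 How the source made its calls: active means inhibition over a set limit, the all-compound mean plus 3 SD, in both replicate runs; inconclusive means over that limit in just one replicate run; inactive means at or under that limit in both runs.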
# Assay: RAM pathway blockade in budding yeast – dse1pr::URA3 reporter, 5-FOA selection, pilot screen (AID 869);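 further: 0% = DMSO wells with no growth and 100% = 10 µM 1-NA-PP1 with full growth; RAM network block rescues cells from 5-FOA so hits raise OD615 growth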
# Conditions: S. cerevisiae dse1pr::URA3 5-FOA growth, OD615, 2 d; at 10 µM; hits give high values; strain carries analog-sensitive mutant Cbk1 kinase
row,Compound,inhibition
1,COC(=O)c1cc2c(s1)N=C(c1ccccc1)N(C)P2(=O)N1CCOCC1 (stereo unspecified),inactive: 1.93%
